Results reported in US20020040034A1, “Methods for treating allergic asthma using descarboethoxyloratadine” (priority 1997, published 2002).

By UniProt entry, the sequences of proteins in these tests, tags left out.
UniProt P31389, whole entry: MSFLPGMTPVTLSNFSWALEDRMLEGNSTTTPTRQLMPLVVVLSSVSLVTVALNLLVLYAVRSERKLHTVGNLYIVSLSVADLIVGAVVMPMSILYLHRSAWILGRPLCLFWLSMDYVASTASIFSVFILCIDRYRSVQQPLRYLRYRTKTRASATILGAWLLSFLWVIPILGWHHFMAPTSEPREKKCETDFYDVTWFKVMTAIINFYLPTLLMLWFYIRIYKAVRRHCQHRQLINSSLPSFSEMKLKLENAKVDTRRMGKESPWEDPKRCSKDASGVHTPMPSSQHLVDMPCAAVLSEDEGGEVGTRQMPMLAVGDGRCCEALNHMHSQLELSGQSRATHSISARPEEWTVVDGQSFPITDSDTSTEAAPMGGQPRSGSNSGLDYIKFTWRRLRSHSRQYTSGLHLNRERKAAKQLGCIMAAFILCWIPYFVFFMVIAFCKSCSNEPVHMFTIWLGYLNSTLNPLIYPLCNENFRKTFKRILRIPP

Target: histamine H-1 receptors (Cavia porcellus, UniProt P31389)
Conditions: Hill coefficient of the binding curve

Inhibition of Pyrilamine Binding at H-1 Receptor (nH): (0.98)
SMILES: COc1ccc(CN(CCN(C)C)c2ccccn2)cc1 [Pyrilamine]
